Target: mu (μ) opiate (OP3) receptor (Homo sapiens (Human), UniProt P35372)
Test: Safety pharmacological profiling: mu opiate receptor ligand binding
Details: compound at 10 μM, in duplicate; ligand binding to cell membranes

## COc1cc2nc3c(c(NC4CCN(C(C)C)CC4)c2cc1OC)CCC3
  Mu Opiate percent inhibition: 26%
